The source of these data is PubChem BioAssay AID878 (University of Pittsburgh Molecular Library Screening Center, 2007).

The structures appear in SMILES notation. The entries are a selection whose mix differs from that of the whole data set. Active and inactive are the calls of the source.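 How the source made its calls: active means activation of at least 50% relative to the plate's high and low controls in the primary single-dose screen; inactive means activation below 50%.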

This experiment is described as follows: compounds producing H2O2 with reducing agent – biochemical, NIH compound library profiling, artefact control for MLSCN library redox annotation, primary screen (AID 878).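 Further: compound incubated with DTT at 0.8 mM final as the reducing agent.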 The settings on record: DTT-dependent redox cycling H2O2, phenol red/HRP absorbance; at 10 µM; stronger effect = higher value; 100% = 100 µM peroxide control, 0% = buffer.
Take `O=[N+]([O-])c1cc([N+](=O)[O-])c(-n2nnc3ccccc32)c([N+](=O)[O-])c1`: the activation is inactive: -0.92%.
In the case of `Cc1nc2ccc3ccccc3c2s1.O=[N+]([O-])c1cc([N+](=O)[O-])c(O)c([N+](=O)[O-])c1` it was inactive: 2.04%.
For `CCCOc1ccc(NP(C)(=O)Oc2ccc(Cl)cc2)cc1` (configuration not stated), the activation is inactive: -0.21%.
With `CP(=O)(Nc1ccc(SC(F)(F)F)cc1)Oc1ccccc1` (configuration not stated), the activation is inactive: -0.45%.
With `CN1CCCCC1COC(=O)C1(O)c2ccccc2CCc2ccccc21` (configuration not stated), the activation was inactive: -0.08%.
For the molecule `COc1ccccc1OP(C)(=O)Nc1c(C)cccc1C` (configuration not stated), the activation is inactive: 2.4%.
Regarding `CC1=NCCc2c1[nH]c1ccccc21.O=[N+]([O-])c1cc([N+](=O)[O-])c(O)c([N+](=O)[O-])c1`, the activation is inactive: 0.17%.
Regarding `CCOC(=O)c1ccc(NP(C)(=O)Oc2cc(C)cc(C)c2)cc1` (configuration not stated), the activation was inactive: -0.01%.
In the case of `Cc1cc(C)cc(OP(C)(=O)Nc2ccc(C)cc2C)c1` (configuration not stated) it was inactive: 0.09%; in that of `Cc1ccc(C)c(NP(C)(=O)Oc2ccccc2)c1` (configuration not stated), inactive: 2.23%; in that of `Cc1cc(C)cc(OP(C)(=O)Nc2ccccn2)c1` (configuration not stated), inactive: -0.54%.
Consider `CP(=O)(Nc1cccc(Br)c1)Oc1ccccc1` (configuration not stated), for which the activation was inactive: -2.11%.
In the case of `CCN(CC)CCCOC(=O)C(O)(c1ccccc1)c1ccccc1`, the activation was inactive: -1.56%.
Next, `O=[N+]([O-])c1ccc2c(c1)C=Nc1ccccc1O2`: inactive: -1.42%.
In the case of `Cc1cccc(C)c1OP(C)(N)=O` (configuration not stated) it was inactive: -1.99%; in that of `CC(C)(C)c1ccc(OP(C)(=O)Nc2ccc(SC(F)(F)F)cc2)cc1` (configuration not stated), inactive: -0.24%; in that of `Cc1cc(C)cc(OP(C)(N)=O)c1` (configuration not stated), inactive: -2.31%.
Next, `COc1ccc(OP(C)(=O)Nc2cccc(F)c2)cc1` (configuration not stated): inactive: 0.12%; `COc1ccccc1OP(C)(=O)Nc1cc(Cl)ccc1C` (configuration not stated): inactive: -0.27%; `Cc1ccc(NP(C)(=O)Oc2ccccc2)c(C)c1` (configuration not stated): inactive: 0.76%.
Take `COc1ccccc1OP(C)(=O)Nc1ccc(C)cc1` (configuration not stated): the activation was inactive: -2.05%.
Next, `CCOC(=O)c1ccc(NP(C)(=O)Oc2ccccc2)cc1` (configuration not stated): inactive: -0.67%; `CP(=O)(Nc1ccccc1Br)Oc1ccccc1` (configuration not stated): inactive: -0.84%.
In the case of `COc1ccccc1OP(C)(=O)Nc1ccccc1` (configuration not stated) it was inactive: -0.41%; in that of `CP(=S)(Nn1cnnc1)Oc1ccccc1` (configuration not stated), inactive: -0.44%; in that of `Cc1cc(C)cc(OP(C)(=O)Nc2ccc(SC(F)(F)F)cc2)c1` (configuration not stated), inactive: -0.06%.
Turning to `CP(=O)(NC(=O)Nc1ccccc1)Oc1ccccc1` (configuration not stated), the activation was inactive: -0.07%.
Consider `CP(=O)(Oc1ccccc1)OC(c1ccccc1)C(F)(F)F` (configuration not stated), for which the activation is inactive: -1.97%.
With `Cc1cccc(C)c1OP(C)(=O)Nc1ccc(SC(F)(F)F)cc1` (configuration not stated), the activation was inactive: 0.21%.
Take `CP(=O)(Nc1ccccn1)Oc1ccc(Cl)cc1` (configuration not stated): the activation is inactive: -0.08%.
For the molecule `CCOC(=O)c1ccc(NP(C)(=O)Oc2ccc(OC)cc2)cc1` (configuration not stated), the activation is inactive: 0.17%.
Next, `CCOP(C)(=S)SCC(=O)NC(C)C(=O)O` (configuration not stated): inactive: -1.52%; `COc1ccccc1OP(C)(=O)Nc1c(C)n(C)n(-c2ccccc2)c1=O` (configuration not stated): inactive: -0.6%.
In the case of `CP(=O)(Oc1ccccc1)N1CCOC1=O` (configuration not stated), the activation is inactive: 1.88%.
Turning to `CCN(CC)CC(O)COC(=O)C(O)(c1ccccc1)C1CCCCC1` (configuration not stated), the activation was inactive: -0.15%.
Turning to `CN(C)C(=O)c1c([N+](=O)[O-])cc([N+](=O)[O-])cc1[N+](=O)[O-]`, the activation is inactive: 0.18%.
Next, `COc1ccccc1OP(C)(=O)Nc1ccccc1Br` (configuration not stated): inactive: -0.33%; `CC(C)(C)c1ccc(OP(C)(=O)O)cc1`: inactive: 0.64%.
Next, `CP(=O)(Nc1ccc(Cl)cc1)Oc1ccc(F)cc1` (configuration not stated): inactive: 0.51%; `CCOC(=O)c1ccc(NP(C)(=O)Oc2ccc(Cl)cc2)cc1` (configuration not stated): inactive: 0.01%; `CP(=O)(OC12CC3CC(CC(C3)C1)C2)OC12CC3CC(CC(C3)C1)C2`: inactive: 0.34%.
Regarding `COc1ccccc1OP(C)(=O)Nc1ccc(C)c(C)c1` (configuration not stated), the activation was inactive: 0.4%.
In the case of `COc1ccc(OP(C)(=O)Nc2ccccc2Br)cc1` (configuration not stated) it was inactive: 0.05%; in that of `Cc1cc(C)cc(OP(C)(=O)Nc2cccc(C(F)(F)F)c2)c1` (configuration not stated), inactive: -0.42%.
In the case of `CP(=O)(Nc1ccc(Cl)cc1Cl)Oc1ccccc1` (configuration not stated) it was inactive: -1.59%.
Regarding `CP(=O)(OCCOc1ccccc1)OCCOc1ccccc1`, the activation is inactive: -1.93%.
Next, `Cc1nc2ccc3ccccc3c2o1.O=[N+]([O-])c1cc([N+](=O)[O-])c(O)c([N+](=O)[O-])c1`: inactive: 3.19%; `COc1ccc(OP(C)(=O)Nc2ccccn2)cc1` (configuration not stated): inactive: 0.37%; `CN(C)CCOC(=O)C(O)(c1ccccc1)C1CCCC1` (configuration not stated): inactive: 0.46%.
Next, `COc1ccccc1OP(C)(=O)Nc1ccc(C)cc1C` (configuration not stated): inactive: -7.33%.
With `CP(=O)(Nc1ccccn1)Oc1ccccc1` (configuration not stated), the activation was inactive: 2.29%.
Next, `CCc1ccc(OP(C)(=O)O)cc1`: inactive: 1.73%.
Next, `Cc1c(NP(C)(=O)Oc2ccc(C(C)C)cc2)c(=O)n(-c2ccccc2)n1C` (configuration not stated): inactive: 2.49%; `O=[N+]([O-])c1cc([N+](=O)[O-])c(Nc2ccccn2)c([N+](=O)[O-])c1`: inactive: 0.000623%.
Next, `CP(=O)(Nc1ccccc1F)Oc1ccccc1` (configuration not stated): inactive: 0.57%.
`CC(C)c1ccc(OP(C)(=O)Nc2ccc(SC(F)(F)F)cc2)cc1` (configuration not stated): the activation is inactive: -0.01%.
In the case of `O=C(OCCN1CCN(CCOCc2ccccc2)CC1)C(O)(c1ccccc1)c1ccccc1` it was inactive: -0.5%; in that of `CCOC(=O)c1ccc(NP(C)(=O)Oc2ccc(F)cc2)cc1` (configuration not stated), inactive: 0.72%; in that of `COc1ccc(OP(C)(=O)Nc2ccc(SC(F)(F)F)cc2)cc1` (configuration not stated), inactive: -1.32%.
With `CP(=O)(Nc1ccccc1)Oc1ccc(F)cc1` (configuration not stated), the activation is inactive: 1.78%.
Take `CCN(CC)CCCOC(=O)C(O)(c1ccccc1)C1CCCCC1` (configuration not stated): the activation was inactive: 0.15%.
Take `CN(C)CCOC(=O)C(O)(c1ccccc1)C1CCCCC1` (configuration not stated): the activation is inactive: 0.47%.
In the case of `COc1ccc(NP(C)(=O)Oc2ccccc2OC)cc1` (configuration not stated) it was inactive: 0.8%; in that of `COc1ccc(OP(C)(=O)Nc2cccc(Br)c2)cc1` (configuration not stated), inactive: -3.91%.
Regarding `O=[N+]([O-])c1cc([N+](=O)[O-])c(NCC2CCS(=O)(=O)C2)c([N+](=O)[O-])c1` (configuration not stated), the activation is inactive: -3.12%.
In the case of `Cc1ccccc1NP(C)(=O)Nc1ccccc1C` it was inactive: -1.43%.
For `CP(=O)(Nc1ccc2c(c1)OCCO2)Oc1ccccc1` (configuration not stated), the activation is inactive: 0.9%.
